From patent publication US20240016766A1, “PHARMACEUTICAL COMPOSITION FOR TREATMENT OF INNER EAR DISORDERS THROUGH LOCAL ADMINISTRATION IN THE TYMPANIC AREA” (priority 2020, published 2024) come the findings set out here.

The conditions of this series: rat, in vivo. How it is done:
Pharmacokinetics study of different active agents has been conducted with ready-to-use formulations. The pharmacokinetic study consists of a single administration up to the eardrum on male Long Evans rats and assessment of the level of the active agent in middle ear area (tympanic bulla) and in the inner ear area (perilymph).
2. Route of administration: 20 μl of each formulation are delivered in the ear canal of one animal in one administration.
3. Animals: 6 male rats Long Evans, were obtained from Janvier Labs, Le Genest St Isle, 53941 St Berthevin, France. Acclimation Animals arrived on site at least 5 days before the experiment to allow optimal acclimation. Selection Animal health was examined on the day before starting the study, to ensure that only animals in good health were selected to enter the testing procedures. […]
4. […] The exact volume of administration was determined during this first test and delivered (volume of 20 μL). […] The diffusion trough the tympanic membrane and into the inner ear and was assessed with the dosage of the perilymph sampling. […]
5. Bioanalysis: The concentration of each compound in the perilymph and in the tympanic bulla was quantified using an exploratory LC/MS-MS assay method in outsourcing laboratory (Eurofins Vergeze, France). The concentration of amitriptyline in plasma was assessed. […]

For the compound `CCN(CC)CC(=O)Nc1c(C)cccc1C` [lidocaine], the “Presence within the inner ear (perilymph)” value is “present”.
